# Binding of CDR-mutated scFvs to a peptide of the spike HR2 region

From the AlphaSeq antibody data of Engelhart et al. 2022 (doi:10.1038/s41597-022-01779-4), copy in the FLAb collection.

Binding partner: SARS-CoV-2 spike HR2 peptide, sequence PDVDLGDISGINAS.

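The starting antibody came from a phage panning campaign against this peptide. AAYL49 was designed without a model: most single CDR substitutions and a random sample of double and triple ones. In AlphaSeq, yeast of one mating type display the scFv and yeast of the other type display the target. The frequency of each diploid, read from paired DNA barcodes, reflects how well the two displayed proteins bind. Scores were corrected for input abundance and mapped to Kd with protein pairs of known affinity run in the same pool. Each pool was mated in three replicate cultures.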

Ab-14 is the parent antibody, in scFv form: VH, then a (GGGGS)3 linker, then VL. The light chain is unchanged in all variants.
VH: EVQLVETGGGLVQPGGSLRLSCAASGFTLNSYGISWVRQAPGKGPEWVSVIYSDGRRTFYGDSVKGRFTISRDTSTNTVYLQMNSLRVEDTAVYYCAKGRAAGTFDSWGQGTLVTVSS
VL: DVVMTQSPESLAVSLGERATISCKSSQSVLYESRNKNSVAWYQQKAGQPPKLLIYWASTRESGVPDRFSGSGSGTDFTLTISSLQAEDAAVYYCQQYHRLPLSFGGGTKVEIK

Each variant's VH is given in full.
Affinities are written as log10 Kd with Kd in nM; a lower number is a better binder.
A pair that was not seen in that replicate is written "nd"; this usually means weak binding, but a binder can also be missed.
As a blank, each scFv also met three strains without target: over library AAYL49, 15% of these pairings were detected, typically at 4.06 and seldom below 2.83. Also given: how often the same scFv was detected with the empty control strains, with their mean in brackets.

VH | replicates, log10 nM | signal with controls
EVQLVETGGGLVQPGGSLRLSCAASGFTLNRYGISWVRQAPGKGPEWVSVIYSDGRRTFYYDSMKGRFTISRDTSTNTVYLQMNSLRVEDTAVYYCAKGRAAGTFDSWGQGTLVTVSS | nd nd nd | 0 of 9
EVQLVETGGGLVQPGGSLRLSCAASGFTLNSYGIFWVRQAPGKGPEWVSVIYSDGRRTFYGDSVKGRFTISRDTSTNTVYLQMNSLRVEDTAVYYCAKGRAAGTFDSWGQGTLVTVSS | nd nd nd | 0 of 9
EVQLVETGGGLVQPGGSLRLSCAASSFTLNSYGISWVRQAPGKGPEWVSVIYSDGRRTFYGDSVKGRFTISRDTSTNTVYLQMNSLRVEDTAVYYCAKRRVAGTFDSWGQGTLVTVSS | 1.96 2.09 2.26 | 7 of 9 (4.23)
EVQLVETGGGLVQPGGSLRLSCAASGFTLNSIGISWVRQAPGKGPEWVSVIYSDGRRTFYGDSVKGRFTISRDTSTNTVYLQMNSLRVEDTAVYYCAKGEARGTFDSWGQGTLVTVSS | 3.61 nd nd | 0 of 9
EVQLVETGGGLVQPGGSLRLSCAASGFTDNSYGISWVRQAPGKGPEWVSVIYSDGRGTFYGDTVKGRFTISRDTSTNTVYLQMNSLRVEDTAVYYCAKGRAAGTFDSWGQGTLVTVSS | 4.28 3.18 4.53 | 5 of 9 (4.14)
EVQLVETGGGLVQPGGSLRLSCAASGFTNNSYGISWVRQAPGKGPEWVSVIYSDGYRTFYGDSVKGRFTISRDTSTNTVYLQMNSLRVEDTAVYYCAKGRAAGTSDSWGQGTLVTVSS | nd 2.76 nd | 0 of 9
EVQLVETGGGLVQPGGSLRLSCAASGFFLNSYGISWVRQAPGKGPEWVSVIYSDGRRTFYGDSVKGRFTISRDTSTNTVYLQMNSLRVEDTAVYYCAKGRFAPTFDSWGQGTLVTVSS | nd nd nd | 0 of 9
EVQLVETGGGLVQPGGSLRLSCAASGFKLNSYGISWVRQAPGKGPEWVSVIYSDGRRTFYGDSDKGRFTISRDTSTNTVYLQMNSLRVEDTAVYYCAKGRAAITFDSWGQGTLVTVSS | nd 3.61 nd | 0 of 9
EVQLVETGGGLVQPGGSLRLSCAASGVTLNSYGISWVRQAPGKGPEWVSVIYSDGRRTFYGDSVKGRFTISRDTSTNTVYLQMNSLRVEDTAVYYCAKGRAAGTFFSWGQGTLVTVSS | nd nd nd | 0 of 9
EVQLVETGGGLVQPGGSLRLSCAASGFTLNSYGISWVRQAPGKGPEWVSYIYSDGARTFYYDSVKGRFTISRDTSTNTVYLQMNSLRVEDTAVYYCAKGRAAGTFDSWGQGTLVTVSS | nd 4.43 nd | 1 of 9 (3.65)
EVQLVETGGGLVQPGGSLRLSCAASGFTLNSYGISWVRQAPGKGPEWVSVISSDGRRTFYGDSPKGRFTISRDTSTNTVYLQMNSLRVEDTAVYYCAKGRAAGTFLSWGQGTLVTVSS | nd nd nd | 0 of 9
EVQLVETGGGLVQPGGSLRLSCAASGFTLNSYGISWVRQAPGKGPEWVSVIYSDGRTYFYGRSVKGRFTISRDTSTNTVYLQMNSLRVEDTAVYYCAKGRAAGTFDSWGQGTLVTVSS | 4.07 nd 4.42 | 4 of 9 (4.50)
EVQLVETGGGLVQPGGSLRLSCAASGFTLNSYHISWVRQAPGKGPEWVSVIYSDCRRTFYGDSVPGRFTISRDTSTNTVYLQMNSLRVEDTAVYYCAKGRAAGTFDSWGQGTLVTVSS | nd 4.43 nd | 0 of 9
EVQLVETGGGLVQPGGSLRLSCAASCFTPNSYGISWVRQAPGKGPEWVSKIYSDGRRTFYGDSVKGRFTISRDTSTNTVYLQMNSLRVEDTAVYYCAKGRAAGTFDSWGQGTLVTVSS | nd nd nd | 0 of 9
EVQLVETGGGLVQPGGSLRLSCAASGFTWNSYGISWVRQAPGKGPEWVSVIMSDGRRTFYGDSVKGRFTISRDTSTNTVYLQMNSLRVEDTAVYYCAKGRAAYTFDSWGQGTLVTVSS | 3.47 nd nd | 1 of 9 (3.06)
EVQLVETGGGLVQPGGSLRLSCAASGFTLNSYGISWVRQAPGKGPEWVSVIYSDGRKTFYGDSVKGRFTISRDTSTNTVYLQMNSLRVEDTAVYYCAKGRAAGTFYSWGQGTLVTVSS | 1.91 1.68 1.91 | 4 of 9 (4.51)
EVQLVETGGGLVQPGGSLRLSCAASGFTLNSYGISWVRQAPGKGPEWVSVIYSDGIRTFYGDSVKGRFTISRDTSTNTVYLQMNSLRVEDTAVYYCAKLRAAGTFDSWGQGTLVTVSS | nd 4.52 5.00 | 3 of 9 (4.03)
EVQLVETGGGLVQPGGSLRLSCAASGFTLNSYNISWVRQAPGKGPEWVSVIYSKGRRTFYGDSVKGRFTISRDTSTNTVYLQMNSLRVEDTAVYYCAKGRRAGTFDSWGQGTLVTVSS | nd nd 5.61 | 1 of 9 (2.78)

Excerpt, the first 2 entries:

VH | replicates, log10 nM | signal with controls
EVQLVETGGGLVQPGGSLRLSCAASGFTLNRYGISWVRQAPGKGPEWVSVIYSDGRRTFYYDSMKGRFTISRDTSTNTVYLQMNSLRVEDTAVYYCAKGRAAGTFDSWGQGTLVTVSS | nd nd nd | 0 of 9
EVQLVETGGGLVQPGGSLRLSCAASGFTLNSYGIFWVRQAPGKGPEWVSVIYSDGRRTFYGDSVKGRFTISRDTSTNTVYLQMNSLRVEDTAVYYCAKGRAAGTFDSWGQGTLVTVSS | nd nd nd | 0 of 9